This note sets out measurements from patent US6440974B2, “Compounds useful for inhibition of farnesyl protein transferase” (Schering Corporation, priority 1997, dated 2002).

By UniProt entry, the sequences of proteins in these tests, tags left out.
UniProt P49356, whole entry: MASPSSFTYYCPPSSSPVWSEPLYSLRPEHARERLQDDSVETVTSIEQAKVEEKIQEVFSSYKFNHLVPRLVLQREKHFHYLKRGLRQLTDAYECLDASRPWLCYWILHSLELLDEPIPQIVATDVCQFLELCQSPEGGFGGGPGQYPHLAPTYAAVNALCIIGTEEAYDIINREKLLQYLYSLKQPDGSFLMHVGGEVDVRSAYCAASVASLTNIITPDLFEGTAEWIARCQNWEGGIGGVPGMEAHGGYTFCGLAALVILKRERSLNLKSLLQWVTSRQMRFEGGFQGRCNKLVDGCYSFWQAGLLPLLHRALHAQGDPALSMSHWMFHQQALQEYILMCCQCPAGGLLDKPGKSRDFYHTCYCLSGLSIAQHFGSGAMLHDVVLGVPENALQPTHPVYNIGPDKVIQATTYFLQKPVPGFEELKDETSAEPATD

SMILES strings stand for the structures.

One may read the IC50 as the point on the concentration scale where inhibition reaches its midpoint.

Experiment [1] deals with farnesyl protein transferase (Homo sapiens, UniProt P49354+P49356). Put plainly: FPT IC50 (inhibition of farnesyl protein transferase, in vitro enzyme assay). The conditions noted are these: read-out: FPT IC50. As to the method:
(§1) FPT IC50 (inhibition of famesyl protein transferase, in vitro enzyme assay) and COS Cell IC50 (Cell-Based Assay) were determined following the assay procedures described in WO 95/10516, published Apr. 20, 1995. GGPIT IC50 (inhibition of geranylgeranyl protein transferase, in vitro enzyme assay), Cell Mat Assay, and anti-tumor activity (in vivo anti-tumor studies) could be determined by the assay procedures described in WO 95/10516. The disclosure of WO 95/10516 is incorporated herein by reference thereto.

The subject of experiment [2] is COS Cell. Nature of the experiment: COS Cell IC50 (Cell-Based Assay). The conditions noted are these: read-out: COS Cell IC50. As to the method:
as §1

For `O=C(C=C1CCOCC1)N1CCC([C@H]2c3ncc(Br)cc3CCc3cc(Cl)cc(Br)c32)CC1`, the values for the IC50 in experiment [1] and in experiment [2] were 5.5 nM and 285 nM, respectively.
With `O=C(CC1CCSCC1)N1CCC([C@H]2c3ncc(Br)cc3CCc3cc(Cl)cc(Br)c32)CC1`, the IC50 in experiment [1] amounted to 3.5 nM; in experiment [2], 143 nM.
